Molecular target: human ApoB-100 (human) (UniProt P04114)
Test: SPR; Biacore T200, C1 chip; ApoB-100 captured by amine-coupled monoclonal anti-ApoB antibody (30-35 RU); Flag-tagged DII injected, 1.3–20 nM; 25°C; 20 mM HEPES pH 6.0, 10 mM NaCl, 0.2 mg/ml BSA; 1:1 model (kinetic fit; KD of Fig. 2D from steady state)

Kd: 4.1 nM
koff: 0.027 s⁻¹
kon: 5.9e+06 M⁻¹ s⁻¹
Substance: Flag-tagged secreted perlecan DII (from UniProt P98160 22-4391) (domain or fragment)

From paper PMC4306681
